From the OPERA property sets (Mansouri et al. 2018)

Compound CN(C)[N+](=O)[O-] has a log10 OH rate constant (cm³/molecule/s) of -11.4.
